{"source": "paper PMC5954004", "about": "“19th European Symposium on Radiopharmacy and Radiopharmaceuticals (ESRR’18)” (EJNMMI Radiopharmacy and Chemistry, 2018)", "key": {"P-gp": {"system": "P-gp", "settings": "for VT of the whole brain: Logan analysis"}, "[1]": {"settings": "for at least 2 weeks"}, "[2]": {"settings": "HPLC at 2 and 4 hours after labelling"}, "SK-OV3 (ovarian cancer)": {"system": "SK-OV3 (ovarian cancer)", "settings": "72 hours treatment, clonogenic assay, trastuzumab-resistant cell line"}, "TrR1 (breast cancer)": {"system": "TrR1 (breast cancer)", "settings": "72 hours treatment, clonogenic assay, trastuzumab-resistant cell line"}}, "note": "Read-outs that look alike come from different tables or passages of the source."}
{"substance": "5-(1-(2-[18F]fluoroethoxy))-[3-(6,7-dimethoxy-3,4-dihydro-1H-isoquinolin-2-yl)-propyl]-5,6,7,8-tetrahydronaphthalen [[^18F]MC225]", "values": [{"measurement": "decrease of VT of the whole brain", "setting": "P-gp; anesthesia pretreated vs control", "value": 29, "unit": "%"}, {"measurement": "VT of the whole brain", "setting": "P-gp; animals pretreated with anesthesia (isoflurane 90 minutes, one week earlier)", "value": "7.89±1.25"}, {"measurement": "VT of the whole brain", "setting": "P-gp; control animals", "value": "11.04±1.25"}]}
{"substance": "^89Zr-oxalate", "values": [{"measurement": "radiochemical purity remaining", "setting": "[1]", "value": "≥ 95", "unit": "%"}]}
{"substance": "MA-Cys-Tyr-Arg-Leu-Arg-BPA-Nle-Pro-Asn-Ile-OH [^99mTc labelled NPY1 short analogue]", "values": [{"measurement": "stability in reaction milieu and human plasma", "setting": "[2]", "value": "stable"}]}
{"substance": "T-DM1", "values": [{"measurement": "T-DM1 concentration with significantly higher cytotoxicity", "setting": "SK-OV3 (ovarian cancer)", "value": 0.01, "unit": "µg/mL"}, {"measurement": "T-DM1 concentration with significantly higher cytotoxicity", "setting": "TrR1 (breast cancer)", "value": 10, "unit": "µg/mL"}]}
